## Apparent affinities of Ab-14 variants for a coronavirus HR2 peptide

From the AlphaSeq antibody data of Engelhart et al. 2022 (doi:10.1038/s41597-022-01779-4), copy in the FLAb collection.

Binding partner: SARS-CoV-2 spike HR2 peptide, sequence PDVDLGDISGINAS.

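Phage display of a naive human antibody library on the peptide gave the parent. Variants in AAYL50 differ from the parent at up to three CDR positions; double and triple changes were sampled at random. AlphaSeq pools MATa yeast showing the antibodies with MATalpha yeast showing the peptide. The frequency of each diploid, read from paired DNA barcodes, reflects how well the two displayed proteins bind. A regression on co-assayed BCL2-family reference pairs converts the normalised counts of each replicate to an apparent Kd. Mating was done three times.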

Parent scFv Ab-14: VH joined to VL by the linker GGGGSGGGGSGGGGS. Changes lie in the light chain CDRs alone.
VH: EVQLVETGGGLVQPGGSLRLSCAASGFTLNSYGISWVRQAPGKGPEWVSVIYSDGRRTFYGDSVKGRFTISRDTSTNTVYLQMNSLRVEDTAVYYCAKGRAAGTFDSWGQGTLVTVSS
VL: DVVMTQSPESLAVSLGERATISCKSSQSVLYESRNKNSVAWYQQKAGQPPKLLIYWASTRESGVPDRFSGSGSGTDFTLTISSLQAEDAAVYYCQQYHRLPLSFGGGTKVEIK

Variants are written as CDR1, CDR2 and CDR3 of the light chain (limits as in the source). Parent: KSSQSVLYESRNKNSVA, WASTRES, QQYHRLPLS.
Values are log10 of the apparent Kd in nM; lower means stronger binding.
A mean of the replicates is given; it leaves out those without a signal.
Where no diploid with the target was found in that replicate, the entry reads "ND": below detection, most likely a poor binder, though not proof of it.
Empty control strains, which show no peptide, gave a signal in 18% of pairings with library AAYL50; the median was 4.19 and 95% of these signals were weaker than 2.99. No background was subtracted. The control count says in how many pairings with the empty strains this scFv gave a signal, with their mean in brackets.
In this assay the parent's reference entry averaged 0.65; its copy inside this library read 1.68.

CDR-L1	CDR-L2	CDR-L3	log10 Kd, replicates	mean log10 Kd (nM)	control signals
KSSQSFLYESRNKNSVA	WASTRES	QQYERLPLS	ND 2.48 ND	2.48	1/9 (3.35)
KESQSVLYESRNKNSVA	WDSTRES	QQYHRLPLW	ND ND ND	ND	0/9
KSSQSALYESRNKNSVA	PASTRES	QQYHRLPDS	ND ND ND	ND	0/9
KSSQSVWYASRNKNSVA	WASTRES	QQYHYLPLS	5.93 ND ND	5.93	3/9 (5.19)
KSSESVLYESRNKNSVA	CASTRES	QQDHRLPLS	1.05 1.05 0.85	0.98	1/9 (2.81)
KSSQSVLYESRNKNSVA	WAMTRES	QQWHRLPLS	ND 4.88 ND	4.88	2/9 (4.29)
KSSQSCLYERRNKNSVA	WASTRES	QQYHRLPLS	2.38 2.07 2.94	2.46	0/9
KMSQSVLYESRNKNSVA	WASTRES	QQYHRLPIA	0.05 0.45 0.24	0.24	2/9 (5.00)
KSSQSVLIESRNKNSVA	WASPRES	QQYHRLDLS	4.01 3.66 4.58	4.09	6/9 (4.70)
KSHQSVLYESRNKNSYA	WASTRES	QQYHRLPHS	ND ND ND	ND	0/9
KSSQSELYESRNKNSVA	WYSTRES	NQYHRLPLS	ND ND ND	ND	3/9 (3.60)
KSSFSVLYLSRNKNSVA	WASTRES	QQIHRLPLS	1.08 2.88 2.34	2.10	0/9
KSSQSVLYESRNKNSVA	WARLRES	QQYHRLPLC	5.01 3.75 5.89	4.88	2/9 (3.96)
KSSQSVLYESRNKNSVA	TASTHES	QQYHRLPLC	4.63 ND ND	4.63	4/9 (3.90)
KSSQSVLWESRNKNSVA	WAGTRES	QQYPRLPLS	4.75 4.58 5.16	4.83	4/9 (4.57)
KSYQSVLYESRNKNNTA	WASTRES	QQYHRLPLS	ND ND ND	ND	0/9
KSSQSVLYESRNKQSVA	WASTRGS	QQYHRLPLN	2.30 3.13 2.72	2.72	4/9 (4.32)
KSSQSVLYERRNKNSVA	WASTRDS	NQYHRLPLS	ND ND ND	ND	0/9
KSSQSVLYESRNKNSVA	WASTNES	QQYNTLPLS	ND ND 4.48	4.48	1/9 (3.61)
NSSQSVLYESRNKNSVA	WASKREK	QQYHRLPLS	3.23 3.05 2.96	3.08	0/9
KSSNSVLYESRNLNSVA	WASTRES	QQYHRLPLS	3.39 ND 5.27	4.33	0/9
ASSLSVLYESRNKNSVA	WASTRES	QLYHRLPLS	ND ND ND	ND	1/9 (4.56)
KSSLSVLYESRNKNSVA	WACTRES	QQVHRLPLS	ND 4.99 ND	4.99	3/9 (3.40)
GVSQSVLYESRFKNSVA	WASTRES	QQYHRLPLS	ND ND ND	ND	0/9
KSSQSVLYEQRNKNSVA	WASTRES	QQYHYVPLS	ND ND ND	ND	0/9
KSSQSVLDENRNKNSVA	WASTRES	QQYHRLPLS	0.21 0.71 0.40	0.44	3/9 (3.75)
KSSQSVLYESRNKNSVQ	CCSTRES	QQYHRLPLS	ND ND 4.78	4.78	1/9 (4.59)
KSSQSKLYESRNKTSVQ	WASTRES	QQYHRLPLS	ND ND ND	ND	1/9 (3.98)
KSSQSVLYESGNMNSGA	WASTRES	QQYHRLPLS	4.13 ND ND	4.13	2/9 (3.46)
KSSQSVLYESRNKNSRA	WASTIES	QQYHRLPLS	ND ND ND	ND	5/9 (4.21)
KSSQLVVYESRNKNSVA	WASTRES	QQYHRHPLS	3.46 4.51 4.92	4.30	1/9 (3.84)
KWSQSHLYESRNKNSVA	WASTRES	QQAHRLPLS	0.51 0.77 0.62	0.63	3/9 (4.42)
KSSQSVLYESQNKNSVA	WNSTRES	QQYHRLILS	ND 3.98 ND	3.98	3/9 (4.03)
KSIQSVLYESHNKNSVA	WASTRES	QQTHRLPLS	ND ND ND	ND	1/9 (5.24)
KSHQSVNYESRNKDSVA	WASTRES	QQYHRLPLS	1.09 1.37 1.33	1.27	2/9 (4.96)

Top 6 of the variants detected in all replicates, tightest first:

CDR-L1,CDR-L2,CDR-L3,"log10 Kd, replicates",mean log10 Kd (nM),control signals
KMSQSVLYESRNKNSVA,WASTRES,QQYHRLPIA,0.05 0.45 0.24,0.24,2/9 (5.00)
KSSQSVLDENRNKNSVA,WASTRES,QQYHRLPLS,0.21 0.71 0.40,0.44,3/9 (3.75)
KWSQSHLYESRNKNSVA,WASTRES,QQAHRLPLS,0.51 0.77 0.62,0.63,3/9 (4.42)
KSSESVLYESRNKNSVA,CASTRES,QQDHRLPLS,1.05 1.05 0.85,0.98,1/9 (2.81)
KSHQSVNYESRNKDSVA,WASTRES,QQYHRLPLS,1.09 1.37 1.33,1.27,2/9 (4.96)
KSSFSVLYLSRNKNSVA,WASTRES,QQIHRLPLS,1.08 2.88 2.34,2.10,0/9